# Reference: publication PMC12131314, “Design, synthesis and cytotoxic research of a novel antitumor model based on acrylamide–PABA analogs via β-tubulin inhibition” (RSC Advances, 2025)
# Tested on: β-tubulin
# Assay: β-tubulin polymerization inhibition (β-tubulin assay kit) in MCF-7 cells
# Type: cell-based
# Method: S4.2.1. Cytotoxic activity evaluation
# To measure the cytotoxic actvity of the synthesized acrylamide-PABA derivatives 4a-j in breast MCF-7 (ATCC Cat. No. HTB-22), liver HepG2 (ATCC Cat No. HB-8065), and normal breast MCF-10A (ATCC Cat. No. CRL 10317) cell lines, cell viability assay was assessed using MTT assay method. Cells at density of 1 x 104 were seeded in a 96-well plate at 37 °C for 24 h under 5% CO2. After incubation, the cells were treated with different concentrations of the test acrylamide-PABA hybrids 4a-j and incubated for 24 h, then 20 µl of MTT solution at 5 mg/mL was applied and incubated for 4 h at 37 °C. Dimethyl sulphoxide (DMSO) in volume of 100 µl was added to each well to dissolve the purple formazan that had formed. The color intensity of the formazan product, which represents the growth condition of the cells, is quantified by using an ELISA plate reader (EXL 800, USA) at 570 nm absorbance. The experimental conditions were carried out with at least three replicates, and the experiments were repeated at least three times.
# S4.2.2. β-tubulin inhibition Assay […]
# according to manufacturer’s instructions
compound,measurement,value
"COc1cc2c(c(OC)c1OC)-c1ccc(OC)c(=O)cc1[C@@H](NC(C)=O)CC2 [Col, Colchicine, reference compound]",percentage inhibition of β-tubulin polymerization,84.33%
